This is an account of results in PubChem BioAssay (NCATS).

The chains behind the UniProt entries cited, without tags or fusion partners.
UniProt P04637, whole entry, looked up: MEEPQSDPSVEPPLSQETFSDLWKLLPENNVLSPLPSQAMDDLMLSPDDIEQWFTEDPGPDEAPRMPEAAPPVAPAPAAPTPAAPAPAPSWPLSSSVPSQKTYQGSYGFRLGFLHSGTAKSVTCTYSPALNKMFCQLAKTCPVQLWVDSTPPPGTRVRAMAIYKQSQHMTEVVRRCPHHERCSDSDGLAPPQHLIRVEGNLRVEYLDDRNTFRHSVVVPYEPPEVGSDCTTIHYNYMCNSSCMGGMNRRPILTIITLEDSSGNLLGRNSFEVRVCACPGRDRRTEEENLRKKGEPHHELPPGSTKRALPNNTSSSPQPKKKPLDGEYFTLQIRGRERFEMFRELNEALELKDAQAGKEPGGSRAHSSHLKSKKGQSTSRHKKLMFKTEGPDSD

The target of experiment [1] is Aldehyde dehydrogenase, mitochondrial (Homo sapiens) (UniProt P05091). Kind of experiment: qHTS for Inhibitors of the Aldehyde Dehydrogenase Family (ALDH2) Primary screen (AID 2061308).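 Note: plate controls were vehicle for no effect and reference inhibitor for full effect; nearly all actives have a fitted effect of over 55% in size.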 The conditions noted are these: ALDH2 enzyme inhibition qHTS, 1536-well; at 56 µM (top of the series). Background: Quantitative high-throughput screening tests each substance at several concentrations.

Experiment [2] has as its target Retinaldehyde dehydrogenase 3 (Homo sapiens) (UniProt P47895). Description: qHTS for Inhibitors of the Aldehyde Dehydrogenase Family (ALDH1A3) Primary screen (AID 2061315).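 Note: plate controls were DMSO vehicle for no effect and reference inhibitor for full effect.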 The following applies: S. pombe CHP2027 cells, fluorescence laser cytometry, 18 h; at 56 µM (top of the series).
Experiment [3] concerns the target Cellular tumor antigen p53 (Homo sapiens) (UniProt P04637). Kind of experiment: Primary qHTS for small molecule compounds that upregulate eGFP-tagged delta133p53alpha (in N-terminal) cells. (AID 2060322).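 Note: cells pre-induced with doxycycline then dosed without doxycycline; 0% = DMSO vehicle and 100% = reference activator; nearly all actives have a fitted effect of over 75% in size.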 The following applies: NCI-H358 eGFP-delta133p53alpha fluorescence, 24 h; active compounds read high.
For experiment [4], the target named is Retinaldehyde dehydrogenase 3 (Homo sapiens) (UniProt P47895). Kind of experiment: qHTS for Inhibitors of the Aldehyde Dehydrogenase Family (ALDH1A3) Validation screen (AID 2061312). Note: % is set by controls: 0 for no effect and ±100 for the full control effect; nearly all actives have a fitted effect of over 45% in size. The conditions noted are these: ALDH1A3 enzyme inhibition qHTS validation, fluorescence; at 42.4 µM (top of the series) unless noted.
The nature of experiment [5]: BET inhibitor-based combinations targeting novel dependencies in MECOM-rearranged (r) AML: OCI-AML3 cell line (AID 2202232). Note: potency is the fitted concentration of half-maximal effect; nearly all actives have a fitted effect of over 35% in size. The following applies: OCI-AML3 viability, CellTiter-Glo luminescence, 48 h.
The nature of experiment [6]: BET inhibitor-based combinations targeting novel dependencies in MECOM-rearranged (r) AML: UCSD-AML1 cell line (AID 2202235). Note: nearly all actives have a fitted effect of over 40% in size. Note: potency is the fitted concentration of half-maximal effect. The following applies: UCSD-AML1 AML cells viability, CellTiter-Glo, 48 h; series mostly up to 46 µM.
The target of experiment [7] is Cellular tumor antigen p53 (Homo sapiens) (UniProt P04637). Kind of experiment: Primary qHTS for small molecule compounds that upregulate eGFP-tagged delta133p53alpha (in C-terminal) cells. (AID 2060324). The conditions noted are these: NCI-H358 delta133p53alpha-eGFP (C-terminal tag), GFP fluorescence imaging, 24 h, percent of 5-azacytidine response, DMSO as zero; at 57.5 µM (top of the series). The essentials: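 Read-out: gated-cell GFP peak intensity (laser scanning cytometer), plate-normalized with DMSO as 0% activity, after 24 h compound exposure at 37C. Cells were C-terminal eGFP-tagged delta133p53alpha NCI-H358, doxycycline-induced (100 ng/ml, 24 h) before plating.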

Experiment [8] concerns the target Aldehyde dehydrogenase, mitochondrial (Homo sapiens) (UniProt P05091). Description: qHTS for Inhibitors of the Aldehyde Dehydrogenase Family (ALDH2) Validation screens (AID 2061302; active = well fitted inhibition curve with a large enough effect; title and protocol of this record describe different tests;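 note: plate controls were DMSO vehicle for no effect and maximal DPI positive control response for full effect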). The following applies: S. pombe CHP2027 cells, fluorescence cytometry, 18 h; at 42.6 µM (top of the series).
A short description of experiment [9]: BET inhibitor-based combinations targeting novel dependencies in MECOM-rearranged (r) AML: MV-4-11 cell line (AID 2202233). Note: potency is the fitted concentration of half-maximal effect; nearly all actives have a fitted effect of over 45% in size. The following applies: MV-4-11 AML viability, CellTiter-Glo luminescence, 48 h. In general terms: ATP-based viability assays read luminescence as a measure of living cells.
The nature of experiment [10]: BET inhibitor-based combinations targeting novel dependencies in MECOM-rearranged (r) AML: HNT-34 cell line (AID 2202234). Note: potency is the fitted concentration of half-maximal effect; nearly all actives have a fitted effect of over 35% in size. The following applies: HNT-34 AML viability, CellTiter-Glo luminescence, 48 h.
Experiment [11] is described as follows: BET inhibitor-based combinations targeting novel dependencies in MECOM-rearranged (r) AML: AML-191 cell line (AID 2202236; note: potency is the fitted concentration of half-maximal effect; nearly all actives have a fitted effect of over 35% in size). The conditions noted are these: AML-191 viability, CellTiter-Glo luminescence, 48 h.
Experiment [12] is described as follows: BET inhibitor-based combinations targeting novel dependencies in MECOM-rearranged (r) AML: AML-194 cell line (AID 2202237; note: potency is the fitted concentration of half-maximal effect; nearly all actives have a fitted effect of over 40% in size). The conditions noted are these: AML-194 (MECOM-r AML) viability, CellTiter-Glo, 48 h.

Values joined by “and” are separate entries in the source; they are usually repeats but may differ in a detail not shown here. Equal values may be shown once. The entries are a selection whose mix differs from that of the whole data set. Inconclusive results are not listed. Active and inactive are the calls of the source. Unless noted, calls come from the whole dose curve; as a rule, active = well fitted curve in the direction sought with a large enough effect; inconclusive = small, poorly fitted or top-dose-only effect, or another doubt; inactive = no such curve, though single readings can be large; an effect the other way counts as inactive or inconclusive.

As for `N#Cc1c(-c2ccc(-c3no[n+]([O-])c3C#N)cc2)no[n+]1[O-]`, the activity change, negative = inhibition in experiment [1] is inactive: -89.5%; in [2] it was inactive: -21.4%.
On to `CCn1c(=O)n([C@@H]2CCN(CC3CCCCCCC3)C[C@H]2CO)c2ccccc21`, for which the activation in [3] is inactive: -3.34%. For the same molecule, the activity change, negative = inhibition in experiment [1] is inactive: 5.56%; in experiment [4], inactive: 88.9% [at 84.7 µM]; in experiment [2], inactive: -2.04%. For the same molecule, the Potency in experiment [5] was active: 13.2 µM; in experiment [6] it was active: 16.6 µM.
With `CN(C(=O)Cc1ccc(Cl)c(Cl)c1)[C@@H]1CCCC[C@@H]1N1CCCC1`, the activation in [3] is inactive: -36.7%. Also, the GFP increase (activation) in [7] was inactive: 0.473%. Besides, the activity change, negative = inhibition in experiment [8] is inactive: -2.05%; in experiment [4] it was inactive: 8.62%.
With `N[C@@H](Cc1ccc([N+]([O-])(CCCl)CCCl)cc1)C(=O)O`, the Potency in [9] was active: 6.61 µM; in experiment [10], active: 4.17 µM; in experiment [6] it was active: 3.32 µM; in [11] it was active: 5.9 µM; in experiment [12] it was active: 3.32 µM.
For `CN(C(=O)Cc1ccccc1)[C@H]1CC[C@@]2(CCCO2)C[C@@H]1N1CCCC1`, the activation in experiment [3] was inactive: 10.7%.
`CN(C(=O)Cc1ccccc1)[C@@H]1CC[C@]2(CCCO2)C[C@H]1N1CCCC1`: the activation in [3] is inactive: 4.22%. The GFP increase (activation) in experiment [7] is inactive: 15.9%. The activity change, negative = inhibition in experiment [8] is inactive: -1.59%; in experiment [4] it was inactive: 4.1%.
`NC(=O)Nc1ccc([As](=O)(O)O)cc1`: in experiment [3], the activation was inactive: -23.4%.
`CN(C(=O)Cc1ccc(Cl)c(Cl)c1)[C@@H]1CC[C@]2(CCCO2)C[C@H]1N1CCCC1`: in experiment [3], the activation is inactive: -70.9%. Also, the GFP increase (activation) in experiment [7] was inactive: 1.75%. Besides, the figures for the activity change, negative = inhibition in [8] and in experiment [4] were inactive: -9% and inactive: -16%, respectively.
Consider `O=C(O[C@H]1CN2CCC1CC2)C1NCc2ccccc2[C@@H]1c1ccccc1` (stereo partly specified), for which the activation in experiment [3] is inactive: -2.39%. The activity change, negative = inhibition is inactive: 5.08% in experiment [1], inactive: 95.6% [at 84.7 µM] in [4] and inactive: 7.87% in experiment [2].
For the molecule `CN(C(=O)Cc1ccc(Cl)c(Cl)c1)[C@H]1CC[C@@]2(CCCO2)C[C@@H]1N1CCCC1`, the activation in experiment [3] was inactive: -3.35%.
Consider `CN(C)C1(c2ccccc2)CCC2(CC1)OCCc1c2[nH]c2ccc(F)cc12` (stereo unspecified), for which the activation in experiment [3] was inactive: 4.77%. Moreover, the figures for the activity change, negative = inhibition in experiment [1], in experiment [4] and in [2] were inactive: 7.73%, inactive: 103% [at 84.7 µM] and inactive: -4.19%, respectively. In [6], the Potency entry is “inactive”.
`CN(C(=O)Cc1ccc(Cl)c(Cl)c1)[C@H]1CCCC[C@H]1N1CCCC1`: in experiment [3], the activation is inactive: -4.77%. In addition, the activity change, negative = inhibition is inactive: 7.48% in [1] and inactive: -11.3% in experiment [2].
Take `CN(C(=O)Cc1ccc(Cl)c(Cl)c1)[C@H]1CCCC[C@@H]1N1CCCC1`: the activation in experiment [3] is inactive: -28.9% and inactive: -32.6%. Besides, the GFP increase (activation) in experiment [7] is inactive: 11.3% and inactive: 0.981%. For the same molecule, the activity change, negative = inhibition was inactive: 5% and inactive: -8.56% in [8]; inactive: -10.5% in [4].
As to `Cc1cc([N+](=O)[O-])cc([N+](=O)[O-])c1O`, the activation in experiment [3] was inactive: -18.6%.
The same measure, in the same setting: the figure for `CCNC(C)Cc1ccc2c(c1)OCO2` (stereo unspecified) is inactive: 0.565%.
